ChEMBL document CHEMBL1138638, “Azepinone as a conformational constraint in the design of kappa-opioid receptor agonists” (Bioorg Med Chem Lett, 2004)

By UniProt entry, the sequences of proteins in these tests, tags left out.
UniProt P41143, whole entry, looked up: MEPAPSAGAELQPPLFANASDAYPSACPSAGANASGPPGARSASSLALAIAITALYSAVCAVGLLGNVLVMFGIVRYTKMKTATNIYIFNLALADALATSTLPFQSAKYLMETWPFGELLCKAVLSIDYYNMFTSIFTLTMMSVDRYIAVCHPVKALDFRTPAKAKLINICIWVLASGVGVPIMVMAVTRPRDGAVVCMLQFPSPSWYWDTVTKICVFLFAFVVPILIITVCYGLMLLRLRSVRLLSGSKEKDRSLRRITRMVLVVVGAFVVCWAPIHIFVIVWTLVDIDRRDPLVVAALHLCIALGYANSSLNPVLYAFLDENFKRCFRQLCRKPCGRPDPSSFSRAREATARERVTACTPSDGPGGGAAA
UniProt P35372, whole entry, looked up: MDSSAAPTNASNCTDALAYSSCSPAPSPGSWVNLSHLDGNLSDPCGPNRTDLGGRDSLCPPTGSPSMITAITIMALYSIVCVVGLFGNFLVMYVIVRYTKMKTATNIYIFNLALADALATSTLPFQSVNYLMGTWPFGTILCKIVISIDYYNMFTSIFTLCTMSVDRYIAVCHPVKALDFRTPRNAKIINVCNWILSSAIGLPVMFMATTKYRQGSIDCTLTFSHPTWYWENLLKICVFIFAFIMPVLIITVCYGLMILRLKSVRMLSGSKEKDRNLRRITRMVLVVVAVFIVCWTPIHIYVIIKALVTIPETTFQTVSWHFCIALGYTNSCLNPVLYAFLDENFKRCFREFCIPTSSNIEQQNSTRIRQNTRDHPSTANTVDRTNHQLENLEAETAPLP

What was measured:
Mus musculus = assay: Effective dose required to inhibit acetic acid induced writhing in mouse when administered orally
[1] = target: Delta-type opioid receptor (Homo sapiens, UniProt P41143); assay: Binding affinity for human Delta opioid receptor
Mu-type opioid receptor = Mu-type opioid receptor (Homo sapiens, UniProt P35372); assay: Binding affinity for human Mu opioid receptor

CN(C(=O)Cc1ccc(Cl)c(Cl)c1)C(CN1CCCC1)c1ccccc1 (stereo not drawn)
ED50 (Mus musculus): 0.17 mg/kg
Ki [1]: 24 nM
Ki (Mu-type opioid receptor): 53 nM
